The numbers were not newly measured in article PMC4297247 (Molecular cancer therapeutics, 2014), which cites them from elsewhere.

For this series, the system named is TNBC. The following applies: anti-EGFR antibody treatment in TNBC; cited from earlier work.

Consider cetuximab, for which the patient response rate result is “low patient response rate”.
